{"source": "paper PMC9933440", "about": "(Crystal Growth & Design, 2022)", "key": {"[1]": {"details": "pH 1.2; cited from earlier work"}, "[2]": {"test": "Solubility experiments in sodium phosphate buffer pH 6.5, 37 °C (HPLC)", "procedure": "Solubility experiments were conducted in sodium phosphate buffer solutions at pH 6.5 and 37 °C to simulate intestinal physiological conditions. For each experiment, an excess crystalline solid was sieved through a 300 μm sieve and introduced into a flask with a screw top containing 100 mL of the medium. The solution was stirred at 200 rpm using a magnetic stir bar for 48 h to reach the equilibrium state. […] After each sampling, the volume of the liquid removed from the suspension was not compensated. The withdrawn suspension was filtered through 0.2 μm nylon filters and diluted prior to high-performance liquid chromatography (HPLC) analysis. The solubility experiment for each crystal form was repeated in triplicate. After the last sample collection, the remaining solid material in the suspension was filtered, dried, and characterized by IR and PXRD.\nA C18 HPLC column (YMC-Pack ODS-A column, 4.6 mm × 250 mm, 5 μm) with a flow rate of 1 mL min^–1 was employed, and the column temperature was set at 25 °C. The binary mobile phase consisted of acetonitrile and sodium phosphate buffer (pH 6.5) in a volume ratio of 25:75. The samples were diluted appropriately with the mobile phase, and the absorbance was measured at 347 nm."}}}
{"smiles": "CN1C(C(=O)Nc2ccccn2)=C(O)c2ccccc2S1(=O)=O.COC(=O)c1ccc(O)cc1", "note": "[PRM methylparaben]", "values": [{"measurement": "solubility vs parent API", "setting": "[1]", "value": "no solubility and IDR advantages"}]}
{"smiles": "C1CNCCN1.Cc1cnc(NC(=O)C2=C(O)c3ccccc3S(=O)(=O)N2C)s1.Cc1cnc(NC(=O)C2=C(O)c3ccccc3S(=O)(=O)N2C)s1", "note": "[MEL-PPZ]", "values": [{"measurement": "dissolved MEL", "setting": "[2]; highest dissolved concentration, sodium phosphate buffer pH 6.5, 37 °C", "value": "0.28 ± 0.03", "unit": "mg mL^–1"}, {"measurement": "apparent solubility compared with the pure API", "setting": "[2]; pH 6.5", "value": "higher solubility at pH 6.5"}, {"measurement": "dissolved MEL, times higher than that of the pure MEL", "setting": "[2]; pH 6.5, 37 °C", "value": 3.3, "unit": "times"}]}
